Source: publication PMC7044277 (Nature Communications, 2020)

How the values were obtained:
[1] = molecular target: T1, DRD4 L1113.28F (Homo sapiens, UniProt P21917, L111F)
T1 sequence (P21917 1-419 L111F): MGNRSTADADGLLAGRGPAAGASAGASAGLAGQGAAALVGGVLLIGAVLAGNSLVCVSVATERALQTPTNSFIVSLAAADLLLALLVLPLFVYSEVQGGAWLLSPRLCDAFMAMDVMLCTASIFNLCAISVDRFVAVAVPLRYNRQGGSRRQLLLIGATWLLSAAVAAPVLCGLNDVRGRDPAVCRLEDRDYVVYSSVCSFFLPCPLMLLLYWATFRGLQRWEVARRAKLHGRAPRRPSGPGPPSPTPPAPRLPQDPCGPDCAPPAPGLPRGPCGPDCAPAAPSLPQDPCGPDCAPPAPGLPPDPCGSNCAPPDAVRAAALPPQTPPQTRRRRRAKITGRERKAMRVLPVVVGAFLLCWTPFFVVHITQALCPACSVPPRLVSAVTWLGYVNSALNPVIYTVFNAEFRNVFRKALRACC

[2] = molecular target: T1, DRD4 L1113.28F; test: biochemical

`OC1(c2ccc(Cl)cc2)CCN(Cc2c[nH]c3ccccc23)CC1` [L-741626] was tested, and the “ΔpKi (mutant-WT)” value ([1]; DRD4 L1113.28F vs DRD4 wild-type) was -0.31, the “binding affinity decreased, mutant vs wild type” value ([1]; DRD4 Leu111^3.28Phe vs wild-type DRD4) was 2.04 fold and the Ki [2] was 0.347 µM.
